Data from ChEMBL document CHEMBL1649198, “Efflux unbalance in Pseudomonas aeruginosa isolates from cystic fibrosis patients” (2009).

What was measured:
Pseudomonas aeruginosa [1] = assay: Ratio of MIC for Pseudomonas aeruginosa 2858 to MIC for Pseudomonas aeruginosa PAO1; type: functional
Pseudomonas aeruginosa [2] = assay: Ratio of MIC for Pseudomonas aeruginosa 2933 to MIC for Pseudomonas aeruginosa PAO1; type: functional

GENTAMICIN
fold change (FC) (Pseudomonas aeruginosa [1]): > 4 | fold change (FC) (Pseudomonas aeruginosa [2]): > 4
